Legend:
GLP-1R = GLP-1R (Homo sapiens, UniProt P43220); assay: GLP-1R activation: cAMP increase in CHO cells stably expressing GLP-1R; type: cell-based; details: 10 point dose response, 30 minutes incubation
[1] = Microsomal stability, human liver microsomes (predicted hepatic clearance); details: predicted from in vitro microsomal stability data

Protein sequences, listed by entry. Tags and fused reporters are not part of them. Residues count along the entry.
UniProt P43220, 24-463 limits assumed: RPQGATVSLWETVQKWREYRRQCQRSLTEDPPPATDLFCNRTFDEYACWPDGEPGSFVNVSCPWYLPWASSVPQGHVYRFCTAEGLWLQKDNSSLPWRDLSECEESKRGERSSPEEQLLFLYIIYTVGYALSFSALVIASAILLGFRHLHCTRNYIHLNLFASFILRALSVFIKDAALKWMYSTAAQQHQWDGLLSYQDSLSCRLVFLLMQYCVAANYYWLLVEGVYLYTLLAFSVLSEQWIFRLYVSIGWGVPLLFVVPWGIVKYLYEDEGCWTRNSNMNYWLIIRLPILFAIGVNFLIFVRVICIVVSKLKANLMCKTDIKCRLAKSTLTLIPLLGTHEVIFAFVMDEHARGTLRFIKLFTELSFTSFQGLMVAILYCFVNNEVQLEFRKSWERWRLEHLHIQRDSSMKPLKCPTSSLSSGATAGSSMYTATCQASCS

Structure (SMILES) | EC50 (GLP-1R) [nM] | Predicted Hepatic Clearance (Pred. Cl.) [1] [mL/min/kg]
COCCn1c(Cc2cc(F)c(-c3cccc(OCc4ccc(C#N)cc4F)n3)cc2F)nc2ccc(OC(C)(C)C(=O)O)cc21 | 259 | 3.5
COCCn1cncc1Cn1c(Cc2ccc(-c3cccc(OCc4ccc(C#N)cc4F)n3)cc2F)nc2ccc(C(=O)O)cc21 | 1.1 | 4.5
C#Cc1cc(-c2cccc(OCc3ccc(C#N)cc3F)n2)ccc1Cc1nc2ccc(C(=O)O)cc2n1CCOC | 10.8 | 7.17
COCC(C1CC1)n1c(Cc2ccc(-c3cccc(OCc4ccc(C#N)cc4F)n3)cc2F)nc2ccc(C(=O)O)cc21 (centres unmarked) | 609 | –
N#Cc1ccc(COc2cccc(-c3cc(F)c(Cc4nc5ccc(C(=O)O)cc5n4C[C@@H]4CCO4)c(F)c3)n2)c(F)c1 | 0.51 | 3.25
N#Cc1ccc(COc2cccc(-c3ccc(Cc4nc5ccc(C(=O)O)cc5n4CC4(C(F)F)CC4)c(F)c3)n2)c(F)c1 | 1.94 | 3.5
N#Cc1ccc(COc2cccc(-c3cc(F)c(Cc4nc5ccc(C(=O)O)cc5n4CC4CCC4(F)F)cc3F)n2)c(F)c1 (centres unmarked) | 2.14 | 1.83
CC(C)(CC#N)Cn1c(Cc2ccc(-c3cccc(OCc4ccc(C#N)cc4F)n3)cc2F)nc2ccc(C(=O)O)cc21 | 4.03 | 6.33
CC1(Cn2c(Cc3ccc(-c4cccc(OCc5ccc(C#N)cc5F)n4)cc3F)nc3ccc(C(=O)NS(=O)(=O)C4CC4)nc32)CC1 | 72 | <1.83

Reference: US11702404B2, “GLP-1R modulating compounds” (priority 2019, dated 2023)
